Antibody variant affinities, Ab-14 heavy chain, assay 1

Reference: Engelhart et al. 2022, doi:10.1038/s41597-022-01779-4. File: FLAb, binding data.

The target is the same throughout: PDVDLGDISGINAS, from the HR2 region of SARS-CoV-2 spike.

Parent scFv Ab-14: VH joined to VL by the linker GGGGSGGGGSGGGGS. Changes lie in the heavy chain CDRs alone.
VH: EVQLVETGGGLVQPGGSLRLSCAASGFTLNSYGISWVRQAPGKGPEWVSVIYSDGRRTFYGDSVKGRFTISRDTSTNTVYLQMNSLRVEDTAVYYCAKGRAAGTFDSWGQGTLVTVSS
VL: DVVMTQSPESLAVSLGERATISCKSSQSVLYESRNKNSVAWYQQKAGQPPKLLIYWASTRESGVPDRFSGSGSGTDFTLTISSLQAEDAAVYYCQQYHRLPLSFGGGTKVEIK

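The starting antibody came from a phage panning campaign against this peptide. In library AAYL49, one, two or three CDR residues were substituted; doubles and triples were drawn at random. The scFvs were displayed on barcoded MATa yeast, the peptide on MATalpha yeast. Binding brings cells together so that they mate, and sequencing counts the barcode pairs among the diploids. Scores were corrected for input abundance and mapped to Kd with protein pairs of known affinity run in the same pool. Mating was done three times.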

Each variant is given by its three heavy chain CDRs, as the data file delimits them; those of the parent are GFTLNSYGIS, VIYSDGRRTFYGDSVK, GRAAGTFDS. This list gathers variants with a substitution at I34 (VH, numbered from residue 1). Kd is apparent (estimated from mating counts) and averaged on the log scale over replicates with a signal. Smaller is tighter. "no signal" marks a missing value. The strain was present, yet no cells mated with the target were sequenced in any replicate, which points to weak or no binding.

* GFTINSYGWS / VIYSDGRHTFYGDSVK / GRAAGTFDS = 33 µM (2 of 3 replicates; controls 3 of 9)
* GFTLNSYGTS / VIYSDGRMTFYGDSVK / VRAAGTFDS = 970 µM (1 of 3 replicates; controls 3 of 9)
* GCTLNSYGAS / VIYSDGCRTFYGDSVK / GRAAGTFDS = 2.1 µM (1 of 3 replicates; controls 2 of 9)
* TFTLNSYGLS / VIYSDGRRTFYGDSVK / GRAGGTFDS = no signal (0 of 3 replicates; controls 2 of 9)
* GFTLNSYEMS / VIYSDGRRTFYMDSVK / GRAAGTFDS = no signal (0 of 3 replicates; controls 0 of 9)
* GFYLNSYGPS / VIYSDGRRTFYGDSVK / GRAAGTFDS = no signal (0 of 3 replicates; controls 1 of 9)
* GFTLNSYSYS / VNYSDGRRTFYGDSVK / GRAAGTFDS = no signal (0 of 3 replicates; controls 1 of 9)
* GFTLNSYGNS / VIYSDGRRDFYGDSVK / GRAAGTNDS = 56 µM (1 of 3 replicates; controls 3 of 9)
* GFTLNSYGLS / VIYSDGRRTFYGDQWK / GRAAGTFDS = no signal (0 of 3 replicates; controls 0 of 9)
* GFTLNSYGCS / VIYSDGRRTFYGDSVK / CRAAGTFDN = no signal (0 of 3 replicates; controls 0 of 9)
* NFTLNSYGPS / VIYSDGRRTFYGDSVK / GRAAGTFQS = 37 µM (3 of 3 replicates; controls 6 of 9)
* GFTLNSYGTS / VIYSDGRRTFYGDSVK / GRAAGTFDC = 2.9 µM (2 of 3 replicates; controls 2 of 9)
* GFTLNSYGLS / VFYSDGRRTFYGDNVK / GRAAGTFDS = 15 µM (1 of 3 replicates; controls 2 of 9)
* GFTLNSYGGS / VIFSVGRRTFYGDSVK / GRAAGTFDS = 130 µM (2 of 3 replicates; controls 6 of 9)
* GFTLNSYGES / VIYSSGRRTFYGDSVK / GRAAGTFDK = 9.5 µM (1 of 3 replicates; controls 1 of 9)
* GFTLNSYGKS / VIYSDGRRTFYGDSVK / GRAAGRFWS = 3.3 µM (1 of 3 replicates; controls 6 of 9)
* GFTLNSYGWS / VIYSDGRRVFYIDSVK / GRAAGTFDS = 2.2 µM (3 of 3 replicates; controls 2 of 9)
* GFTLNSYGSS / MIYSDGRRTFYGDSVK / GRAAGTFDS = no signal (0 of 3 replicates; controls 5 of 9)
* GFTLNSYGMS / VMYSDGRRTFYGDSVK / GRAAGTFHS = 31 µM (2 of 3 replicates; controls 0 of 9)
* GFTLNSYGTS / VIYPDGRRTFPGDSVK / GRAAGTFDS = no signal (0 of 3 replicates; controls 2 of 9)
* GFTLNSYGAS / VIYSDGRRTFYGDSVK / GRGAGTFDS = 17 µM (1 of 3 replicates; controls 1 of 9)
* GFTLNMYGQS / VIYSDGRRTFYGDSVK / GRAACTFDS = 71 µM (3 of 3 replicates; controls 6 of 9)
* GFTLNSYGTS / VIYSDGRRTFYGDSVK / ARAAGTFDS = no signal (0 of 3 replicates; controls 2 of 9)
* GFTLNSYGME / VIYSDGRRTFYGDSVK / LRAAGTFDS = no signal (0 of 3 replicates; controls 1 of 9)
* GFTENSYGYS / VIYSDGRRTFYGDSVK / GRADGTFDS = no signal (0 of 3 replicates; controls 2 of 9)
* GFTLNSYGKS / VIYSDGRRTFYGDSVK / GRAAGTFDS = no signal (0 of 3 replicates; controls 0 of 9)
* GFTLQSYGAS / VIYSDGRRQFYGDSVK / GRAAGTFDS = 5.7 µM (1 of 3 replicates; controls 0 of 9)
* GFTLNSYFNS / VIYMDGRRTFYGDSVK / GRAAGTFDS = 100 µM (1 of 3 replicates; controls 1 of 9)
* GFTLNSYGNS / VIYSDGRRRFYGDSVK / GRAAGLFDS = 15 µM (1 of 3 replicates; controls 0 of 9)
* GFTLNSYGCS / VIYSDGWRTFYGDSVK / GRAAGTADS = 93 µM (2 of 3 replicates; controls 1 of 9)
* GFTLNSYGNS / VIYSDHRRTFYGDDVK / GRAAGTFDS = 6.3 µM (1 of 3 replicates; controls 5 of 9)
* GFTLDSYGWS / VIYSPGRRTFYGDSVK / GRAAGTFDS = 130 µM (3 of 3 replicates; controls 2 of 9)
* GFTLNSYGYS / VIYTDGRRTFYNDSVK / GRAAGTFDS = no signal (0 of 3 replicates; controls 0 of 9)
* GFTLNSYGFS / VIYSDGARTFTGDSVK / GRAAGTFDS = no signal (0 of 3 replicates; controls 1 of 9)
* GFTLNSYGDS / VIYSDGRRTYYGDKVK / GRAAGTFDS = 31 µM (3 of 3 replicates; controls 1 of 9)
* GFQLNSYGPS / VIYLDGRRTFYGDSVK / GRAAGTFDS = 11 µM (1 of 3 replicates; controls 2 of 9)
* GFTLNSYGRS / VIPSDGRRTFYGDSVK / GRAAGTFDE = 22 µM (1 of 3 replicates; controls 6 of 9)
* GFTLNSYGCS / VIYSDGRRTFYGDSAK / GRAAGTCDS = no signal (0 of 3 replicates; controls 2 of 9)

Top 3 of the variants detected in all replicates, tightest first:

* GFTLNSYGWS / VIYSDGRRVFYIDSVK / GRAAGTFDS -> 2.2 µM (3 of 3 replicates; controls 2 of 9)
* GFTLNSYGDS / VIYSDGRRTYYGDKVK / GRAAGTFDS -> 31 µM (3 of 3 replicates; controls 1 of 9)
* NFTLNSYGPS / VIYSDGRRTFYGDSVK / GRAAGTFQS -> 37 µM (3 of 3 replicates; controls 6 of 9)

Three control strains display no target. For library AAYL49, 15% of the pairings with them gave a signal, with a median of 11 µM and one signal in twenty below 680 nM, so weak values seen in few replicates may be background. The control count says in how many pairings with the empty strains this scFv gave a signal. For reference, the parent read 4.4 nM as the reference entry and 13 µM (one replicate of three) as a member of this library.